Consider one compound from ChEMBL document CHEMBL1154493, “Oxidative inactivation of protein tyrosine phosphatase 1B by organic hydroperoxides” (Bioorg Med Chem Lett, 2008).

The target of assay [1] is T1, Tyrosine-protein phosphatase non-receptor type 1 (Homo sapiens) (UniProt P18031).
T1 sequence (whole entry): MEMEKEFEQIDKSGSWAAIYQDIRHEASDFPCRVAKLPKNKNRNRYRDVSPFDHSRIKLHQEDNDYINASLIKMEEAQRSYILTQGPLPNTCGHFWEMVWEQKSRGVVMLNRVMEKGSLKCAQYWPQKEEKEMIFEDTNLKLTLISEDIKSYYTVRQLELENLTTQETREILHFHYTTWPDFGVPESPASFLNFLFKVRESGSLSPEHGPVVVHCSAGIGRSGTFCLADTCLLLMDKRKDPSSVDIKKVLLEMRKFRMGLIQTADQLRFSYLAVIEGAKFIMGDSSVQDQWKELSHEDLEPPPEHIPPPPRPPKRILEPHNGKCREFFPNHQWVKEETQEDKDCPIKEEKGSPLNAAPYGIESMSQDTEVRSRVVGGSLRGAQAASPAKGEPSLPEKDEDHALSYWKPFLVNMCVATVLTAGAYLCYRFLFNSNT
Description: Inhibition of PTP1B assessed as inhibition rate constant.

The target of assay [2] is T1, Tyrosine-protein phosphatase non-receptor type 1 (Homo sapiens). As to the kind of experiment: Inactivation of PTP1B assessed as return of enzyme activity at 50 uM after 1 hr in presence of dithiothreitol.

With `OOC1CCCO1` (configuration not stated), the results for the Activity in assay [1] and in assay [2] were 20.3 M⁻¹ s⁻¹ and 54%, respectively.
